Chains of the proteins cited; added tags and fusions are not shown. Lines headed by an entry give the natural chain unless they say otherwise; changes in a name come on top.
UniProt P70536: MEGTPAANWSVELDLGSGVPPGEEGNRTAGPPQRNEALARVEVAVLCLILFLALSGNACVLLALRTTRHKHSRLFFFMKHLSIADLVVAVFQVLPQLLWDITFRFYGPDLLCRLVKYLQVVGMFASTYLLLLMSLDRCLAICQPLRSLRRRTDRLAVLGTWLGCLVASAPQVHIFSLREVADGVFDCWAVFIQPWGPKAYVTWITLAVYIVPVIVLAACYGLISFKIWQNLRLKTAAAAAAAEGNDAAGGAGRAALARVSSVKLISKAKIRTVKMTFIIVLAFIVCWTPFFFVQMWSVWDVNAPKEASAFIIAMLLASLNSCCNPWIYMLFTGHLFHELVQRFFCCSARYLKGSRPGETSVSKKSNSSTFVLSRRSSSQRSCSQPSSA
UniProt Q00788, whole entry, looked up: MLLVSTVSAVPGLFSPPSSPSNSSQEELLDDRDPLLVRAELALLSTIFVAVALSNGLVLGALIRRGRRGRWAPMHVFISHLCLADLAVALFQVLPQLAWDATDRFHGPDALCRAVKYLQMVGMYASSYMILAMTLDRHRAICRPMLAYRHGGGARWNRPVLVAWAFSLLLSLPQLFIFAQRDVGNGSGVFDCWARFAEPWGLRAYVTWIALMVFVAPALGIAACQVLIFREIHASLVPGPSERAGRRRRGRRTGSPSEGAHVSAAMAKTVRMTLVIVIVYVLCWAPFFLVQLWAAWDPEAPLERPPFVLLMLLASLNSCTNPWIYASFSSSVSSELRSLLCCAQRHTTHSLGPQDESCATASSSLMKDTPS
UniProt P30560, whole entry, looked up: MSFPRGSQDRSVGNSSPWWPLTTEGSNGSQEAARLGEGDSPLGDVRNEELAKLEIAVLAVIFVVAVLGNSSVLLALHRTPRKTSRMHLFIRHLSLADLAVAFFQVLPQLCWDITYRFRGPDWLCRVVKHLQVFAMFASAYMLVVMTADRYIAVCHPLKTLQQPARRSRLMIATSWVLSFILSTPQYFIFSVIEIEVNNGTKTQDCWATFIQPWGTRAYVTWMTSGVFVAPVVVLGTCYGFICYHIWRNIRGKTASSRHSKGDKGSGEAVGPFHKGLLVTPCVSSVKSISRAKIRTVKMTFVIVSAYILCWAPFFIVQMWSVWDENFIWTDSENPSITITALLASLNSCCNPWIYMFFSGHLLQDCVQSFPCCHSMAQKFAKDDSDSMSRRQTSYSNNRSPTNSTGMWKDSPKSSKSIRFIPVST

According to patent publication US5356904A, “Carbostyril oxytocin receptor antagonists” (Merck & Co., Inc., priority 1992, dated 1994):

Legend:
uterine OT receptors = uterine OT receptors (Rattus norvegicus, UniProt P70536); experiment: [3H]oxytocin (OT) radioligand binding, uterine membranes
AVP-V2 sites = AVP-V2 sites (Rattus norvegicus, UniProt Q00788); experiment: [3H]vasopressin (AVP) radioligand binding, kidney medulla membranes (AVP-V2 sites); details: @ 3 uM
AVP-V1 sites = AVP-V1 sites (Rattus norvegicus, UniProt P30560); experiment: [3H]vasopressin (AVP) radioligand binding, liver membranes (AVP-V1 sites); details: @ 3 uM

SMILES | % Inhibition rat OT (uterine OT receptors; @ 10 uM) | also measured
Cc1ccc(C(=O)N2CCC(N3C(=O)CCc4ccccc43)CC2)cc1 | 73% | 
O=C(c1ccc([N+](=O)[O-])cc1)N1CCC(N2C(=O)CCc3ccccc32)CC1 | 57% | 
CCCCOc1ccc(C(=O)N2CCC(N3C(=O)CCc4ccccc43)CC2)cc1 |  | % Inhibition rat OT (uterine OT receptors; @ 1 uM): 38%
O=C(c1ccc(F)cc1)N1CCC(N2C(=O)CCc3ccccc32)CC1 | 69% | 
N#Cc1ccc(C(=O)N2CCC(N3C(=O)CCc4ccccc43)CC2)cc1 | 52% | % Inhibition rat V2 (AVP-V2 sites): 3%; % Inhibition rat V1 (AVP-V1 sites): 59%
O=C(c1ccccc1)N1CCC(N2C(=O)CCc3ccccc32)CC1 | 69% | 
CCc1ccc(C(=O)N2CCC(N3C(=O)CCc4ccccc43)CC2)cc1 | 80% | 
